Laboratory results published in patent US20070155806A1, “Novel luciferin derivatives” (The University of Tokyo, priority 2005, published 2007).

Protein sequences, listed by entry. Tags and fused reporters are not part of them.
UniProt P08659, whole entry: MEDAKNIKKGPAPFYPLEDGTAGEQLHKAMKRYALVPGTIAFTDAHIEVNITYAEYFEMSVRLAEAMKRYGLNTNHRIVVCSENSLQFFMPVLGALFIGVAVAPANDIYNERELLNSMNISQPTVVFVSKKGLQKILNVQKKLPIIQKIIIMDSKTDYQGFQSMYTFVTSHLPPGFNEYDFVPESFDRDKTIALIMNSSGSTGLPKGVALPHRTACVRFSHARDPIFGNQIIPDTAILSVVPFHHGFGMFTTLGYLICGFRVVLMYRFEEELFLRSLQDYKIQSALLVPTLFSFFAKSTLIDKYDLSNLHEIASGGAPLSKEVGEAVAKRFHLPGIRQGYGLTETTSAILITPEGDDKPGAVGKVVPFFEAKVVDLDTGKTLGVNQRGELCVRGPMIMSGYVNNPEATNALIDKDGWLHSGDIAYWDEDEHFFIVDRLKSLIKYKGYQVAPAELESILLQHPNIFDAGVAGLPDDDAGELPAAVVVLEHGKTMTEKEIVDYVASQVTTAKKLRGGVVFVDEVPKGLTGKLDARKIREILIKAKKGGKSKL

Experiments:
firefly luciferase = firefly luciferase (Photinus pyralis, UniProt P08659); settings: conventional luciferin luminescence; cited from earlier work
luciferase (firefly) = luciferase (firefly) (Photinus pyralis, UniProt P08659); assay: Luminescence characteristics with firefly luciferase (Example 3); assay type: biochemical; settings: 12 μmol/L substrate, 20 μg/mL luciferase
Method: The measurement was performed by using Fluorescence Spectrophotometer F-4500 (Hitachi).

λmax(nm) (luciferase (firefly); luminescence peak, HEPES pH 7.7, ATP, Mg, CoA): 575 nm
initial intensity (luciferase (firefly); luminescence, HEPES pH 7.7): 7332
Structure (SMILES): O=C(O)[C@H]1CSC(c2nc3ccc(O)cc3s2)=N1 [luciferin]
emission wavelength (firefly luciferase): 570 nm
